Nine compounds from patent publication US10072026B2, “Crystalline form of 3-((1R,3s,5S)-3-((7-((5-methyl-1H-pyrazol-3-yl)amino)-1,6-naphthyridin-5-yl)amino)-8-azabicyclo[3.2.1]octan-8-yl)propanenitrile” (priority 2015, dated 2018) can be followed below.

One assay concerns the target JAK3 (Homo sapiens (Human), UniProt P52333). The assay is described as follows: LanthaScreen JAK biochemical assay (JAK3). On the technique in general: Time-resolved FRET reads energy transfer from a long-lived donor to a nearby acceptor.
For assay [1], the system named is IL-4 induced STAT6 phosphorylation in THP-1 human monocytic cells. The assay is described as follows: Cellular JAK potency assay, THP-1. The note with it: THP-1, read-out: THP-1 IL4 pIC50 (converted).
For assay [2], the system named is IL-13 induced STAT6 phosphorylation in BEAS-2B human lung epithelial cells. Put plainly: AlphaScreen cellular JAK potency assay, BEAS-2B. The following applies: read-out: BEAS2B pIC50 (converted). (Bead proximity is the source of the signal in Alpha formats.)

In general, Ki refers to the dissociation constant of the complex between target and ligand, obtained from inhibition or displacement.

As to `COC(=O)CN1[C@@H]2CC[C@H]1C[C@H](Nc1nc(Nc3cc(C)[nH]n3)cc3ncccc13)C2` [Example 1-1], the “JAK 3 (pKi)” value on JAK3 is “C (C represents a pKi value between 7 and 9 (Ki between 100 nM and 1 nM))”.

The compound `Cc1cc(Nc2cc3ncccc3c(N[C@@H]3C[C@H]4CC[C@@H](C3)N4C3CCOC3=O)n2)n[nH]1` (stereo partly shown) [Example 1-26] had an inhibition constant Ki on JAK3 of 1 to 100 nM. Turning to `Cc1cc(Nc2cc3ncccc3c(N[C@@H]3C[C@H]4CC[C@@H](C3)N4S(=O)(=O)C3CNC3)n2)n[nH]1` [Example 4-9], the Ki at JAK3 fell in the range of 1 to 100 nM. On to `Cc1cc(Nc2cc3ncccc3c(N[C@@H]3C[C@H]4CC[C@@H](C3)N4C(=O)C(F)F)n2)n[nH]1` [Example 5, 2,2-difluoro-1-((1R,3s,5S)-3-((7-((5-methyl-1H-pyrazol-3-yl)amino)-1,6-naphthyridin-5-yl)amino)-8-azabicyclo[3.2.1]octan-8-yl)ethan-1-one], for which the IC50 in assay [1] and in assay [2] was < 31.6 nM in each case.

For `CCS(=O)(=O)N1[C@@H]2CC[C@H]1C[C@H](Nc1nc(Nc3cc(C)[nH]n3)cc3nc(CO)ccc13)C2` [Example 5-13], the IC50 in assay [1] was 31.6 to 200 nM. Take `CCC1(S(=O)(=O)N2[C@@H]3CC[C@H]2C[C@H](Nc2nc(Nc4cc(C)[nH]n4)cc4nc(CN5CCN(C)CC5)ccc24)C3)CC1` [Example 5-36]: the IC50 in assay [1] and in assay [2] was < 31.6 nM in each case.

As to `COCCS(=O)(=O)N1[C@@H]2CC[C@H]1C[C@H](Nc1nc(Nc3cc(C)[nH]n3)cc3ncccc13)C2` [Example 6, N^5-((1R,3s,5S)-8-((2-methoxyethyl)sulfonyl)-8-azabicyclo[3.2.1]octan-3-yl)-N^7-(5-methyl-1H-pyrazol-3-yl)-1,6-naphthyridine-5,7-diamine], the IC50 in assay [1] and in assay [2] was 31.6 to 200 nM throughout.

For the compound `COC(=O)c1cnc2cc(Nc3cc(C)[nH]n3)nc(N[C@@H]3C[C@H]4CC[C@@H](C3)N4C(=O)C(F)F)c2c1` [Example 6-37], the IC50 in assay [1] is 31.6 to 200 nM. For the compound `COc1ccnc2cc(Nc3cc(C)[nH]n3)nc(N[C@@H]3C[C@H]4CC[C@@H](C3)N4C3(CC#N)COC3)c12` [Example 7-10], the values for the IC50 in assay [1] and in assay [2] were < 31.6 nM and 31.6 to 200 nM, respectively.
